1 molecule from patent US20080187937A1, “Method For Measuring Dynamics Of Self-Assembling Systems Of Biological Molecules In Vivo And Uses For Discovering Or Evaluating Therapeutic Agents” (priority 2004, published 2008) can be followed below.

The subject of the series is sciatic nerve microtubules. The experiment in a line: Densitometric analysis of free tubulin and microtubule abundance in sciatic nerve. The conditions noted are these: tumor-bearing mice (FIG. 6B).

With `CC(=O)O[C@H]1C(=O)[C@@]2(C)[C@H]([C@H](OC(=O)c3ccccc3)[C@]3(O)C[C@H](OC(=O)[C@H](O)[C@@H](NC(=O)c4ccccc4)c4ccccc4)C(C)=C1C3(C)C)[C@]1(OC(C)=O)CO[C@@H]1C[C@@H]2O` [paclitaxel], the “amount of microtubule polymers (sciatic nerve, densitometry)” value is “dose-dependent increase in the amount of microtubule polymers”.
